# Source: PubChem (National Center for Advancing Translational Sciences (NCATS))
# Most compounds without a hit are left out; they make up all but 16% or so of the library.
# TDP1 inh – inhibitors of human tyrosyl-DNA phosphodiesterase TDP1. recombinant TDP1, AlphaScreen DNA substrate cleavage. AID 485290. 0.28% of 350,000 active. Potency, µM (series often up to 130 µM), for inactives: at the highest dose activity change, negative = inhibition, hits mostly inhibitors. Q9NUW8; also: potency is read from the fitted curve at half-maximal effect; % is scaled to controls: 0 for no effect and ±100 for the full control effect; nearly all actives have a fitted effect of over 40% in size
#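 E. coli-derived human Tdp1, 1 nM final. Cpd preinc 15 min RT; substrate 15 nM final, 5 min RT; AS bead mix 10 ug/ml final, 10 min RT. Signal loss = tyrosine-FITC cleavage. No-enzyme wells = max signal.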
# TDP1 cell CPT – growth inhibition of DT40 Tdp1-/-;hTDP1 cells with camptothecin (screen for TDP1 inhibitors); chicken DT40 Tdp1-/-;hTDP1 cells + 20 nM CPT, ATP luminescence, 48 h; Potency, µM (doses to about 46.2 µM), for inactives: at the highest dose activity change, negative = growth inhibition, actives largely listed as inhibitors; 12% of 420,000 active; AID 686979; also: potency is read from the fitted curve at half-maximal effect; % is scaled to controls: 0 for no effect and ±100 for the full control effect; nearly all actives have a fitted effect of over 55% in size
#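 Chicken DT40 Tdp1-/- cells stably complemented with human TDP1 were seeded at 400 cells/well in medium containing 20 nM camptothecin, exposed to pin-transferred compounds, and grown at 37 °C for at least 48 hr. Viability was read as ATP luminescence.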
# uPA generation – cell surface uPA generation inhibition | AID 540303 | Potency, µM (series often up to 38.3 µM), for inactives: top-dose activity change, negative = inhibition, usual class: inhibitors | cell surface uPA generation assay, qHTS | 0.31% of 330,000 active; active = well fitted inhibition curve with a large enough effect; inconclusive = small, poorly fitted or top-dose-only effect; inactive = no such curve, though single readings can be large or run the other way; tested in mouse RAW 264.7 cells; also: potency is read from the fitted curve at half-maximal effect; % is scaled to controls: 0 for no effect and ±100 for the full control effect; nearly all actives have a fitted effect of over 55% in size
# miR-21 reporter – miR-21 reporter, rising signal; HeLa miR-21 FLuc reporter, luciferase, 48 h; Potency, µM (highest dose often 38.3 µM), for the others: top-dose reporter change, positive = more light; 340,000 tested, under 10 active; AID 2288; active = well fitted rising curve with a large enough effect; inconclusive = small, poorly fitted or top-dose-only effect; inactive = no such curve, though single readings can be large or run the other way;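 further: % of control where 0% means no effect; miR-21 action dims this reporter so a rising signal means less miR-21 action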
#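 Luminescence from a firefly luciferase reporter carrying a miR-21 binding site downstream, stably expressed under a CMV promoter in HeLa cells that make miR-21 endogenously, reports miRNA modulation after 48 h compound exposure up to approximately 40uM final.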
# DT40 TDP1 no CPT – qHTS for Inhibitors of human tyrosyl-DNA phosphodiesterase 1 (TDP1): qHTS in cells in absence of CPT; AID 686978, 2013; Potency, µM (series often up to 46.2 µM), inactives show at the top dose activity change, negative = growth inhibition, usual class: inhibitors; 15% of 420,000 active; DT40 Tdp1-/- hTDP1 cells, no CPT, ATP luminescence, 48 h; also: potency is read from the fitted curve at half-maximal effect; % is scaled to controls: 0 for no effect and ±100 for the full control effect; nearly all actives have a fitted effect of over 55% in size
#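 Readout: luminescence from CellTiter-Glo after 30 min in the dark at RT. Cells: DT40 Tdp1-/- with stable hTDP1, 400/well. Exposure: compounds alone, ≥48 hr, 37 °C.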
# * hit, by the source's call; ? = inconclusive; . = no result; [ ] = another dose, or the depositor's remark. Unless noted, calls follow the shape of the dose curve; as a rule, active = well fitted curve in the direction sought with a large enough effect; inconclusive = small, poorly fitted or top-dose-only effect, or another doubt; inactive = no such curve, though single readings can be large; an effect the other way counts as inactive or inconclusive.
SMILES,TDP1 inh,TDP1 cell CPT,uPA generation,miR-21 reporter,DT40 TDP1 no CPT
c1ccc(COc2cccc(-c3cc4nc(NCCN5CCOCC5)ccn4n3)c2)cc1,.,25.9µM*,.,.,13µM*
O=C(O)CCC(CNS(=O)(=O)c1ccccc1)C(F)(F)F (centres undefined),7.2%,28.7%,3.9%,3.3%,-4.4%
Cc1cccc2cc(CN(CC3CCCO3)C(=O)c3cnccn3)c(=O)[nH]c12 (centres undefined),8.0%,-9.2%,-3.1%,-2.3%,-3.0%
CCOC(=O)NNc1ccc2nonc2c1[N+](=O)[O-],.,6.51µM*,-10.8%,10.7%,2.91µM*
CCc1ccc(Nc2ccc3nonc3c2[N+](=O)[O-])cc1,.,-6.6%,-2.2%,.,?
O=S1(=O)CC(O)C(O)CS1 (centres undefined),.,23.1µM*,.,.,?
COc1ccc2c(c1)sc1nc(=O)ccn12,.,9.4%,-0.1%,-7.6%,-26.9%
COc1ccc2c(c1)sc(=N)n2C,4.6%,18.4µM*,-2.5%,25.2%,18.4µM*
CN(C)CCNc1ncnc2c1sc1nc(N3CCOCC3)c3c(c12)CC(C)(C)SC3,5.2%,?,-4.3%,-17.1%,20.6µM*
CC1(C)Cc2c(c(N3CCCC3)nc3sc4c(N5CCN(CCO)CC5)ncnc4c23)CO1,8.3%,16.4µM*,-19.9%,-4.8%,11.2µM*
CCCCN(CC)c1ncnc2c1sc1nc(N3CCOCC3)c3c(c12)CCCC3,1.3%[12.3 µM],2.1%,.,-6.3%,14.4%
OCCN(CCO)c1ncnc2c1sc1nc(N3CCOCC3)c3c(c12)CCCC3,7.4%,16.4µM*,-10.5%,-12.6%,18.4µM*
OCCN1CCN(c2ncnc3c2sc2nc(N4CCOCC4)c4c(c23)CCC4)CC1,2.9%,?,-3.6%,-30.9%,20.6µM*
COc1ccc(SCCC(=O)NCc2ccncc2)cc1,3.5%,-3.5%,-1.8%,0.3%,-23.4%
CCOC(=O)c1ccc(-n2c(CCC(=O)O)ccc2-c2ccc(Br)cc2)cc1,.,?,.,-5.4%,?

# Next section; it opens with the 4 that closed the last part.
SMILES,TDP1 inh,TDP1 cell CPT,uPA generation,miR-21 reporter,DT40 TDP1 no CPT
OCCN(CCO)c1ncnc2c1sc1nc(N3CCOCC3)c3c(c12)CCCC3,7.4%,16.4µM*,-10.5%,-12.6%,18.4µM*
OCCN1CCN(c2ncnc3c2sc2nc(N4CCOCC4)c4c(c23)CCC4)CC1,2.9%,?,-3.6%,-30.9%,20.6µM*
COc1ccc(SCCC(=O)NCc2ccncc2)cc1,3.5%,-3.5%,-1.8%,0.3%,-23.4%
CCOC(=O)c1ccc(-n2c(CCC(=O)O)ccc2-c2ccc(Br)cc2)cc1,.,?,.,-5.4%,?
COc1ccccc1C(=O)NCCC(=O)NC1CCCC(C)C1C (centres undefined),11.2%,-21.7%,-0.4%,.,-19.2%
Cc1oc2c(c(C)cc3oc(=O)c(CC(=O)N[C@H](C(=O)O)C(C)C)c(C)c32)c1C,.,1.3%,2.3%,0.3%,11.9%
COc1ccc(Cc2nc3ccc(C(=O)N4CCOCC4)cc3o2)cc1,4.4%,3.2%,1.1%,-54.5%,-22.1%
COc1ccc(Nc2nc3c(S(=O)(=O)c4ccccc4)nnn3c3ccc(Cl)cc23)cc1,-5.9%,6.51µM*,.,-15.9%,9.2µM*
CCc1ccc(S(=O)(=O)c2nnn3c2nc(Nc2ccc(F)cc2)c2cc(Cl)ccc23)cc1,4.9%,3.66µM*,.,-4.4%,5.17µM*
CCCCC1=CC2=C(c3ccco3)C(=O)C(C)(OC(=O)c3ccc(OC)cc3)C(=O)C2=CN1CC1CC1 (centres undefined),6.8%[12.3 µM],8.2µM*,-13.9%,8.0%,18.4µM*
CCCCC1=CC2=C(c3ccco3)C(=O)C(C)(OC(=O)c3ccc(OC)cc3)C(=O)C2=CN1CC(C)C (centres undefined),11.3%[12.3 µM],3.26µM*,-5.4%,4.6%,5.17µM*
O=C(Nc1cccc(Cl)c1)OCc1cn(-c2ccccc2)nn1,5.9%,-7.0%,-9.8%,-14.9%,?
CCOc1cc(NC(=O)c2ccccn2)c(OCC)cc1NC(=O)CC(C)C,6.9%,13µM*,3.7%,-1.8%,8.2µM*
CCOc1cc(NC(=O)c2ccccn2)c(OCC)cc1NC(=O)c1ccccc1,1.2%,?,0.0%,-0.4%,20.6µM*
O=C(Nc1ccc(Cl)cc1C(=O)c1ccccn1)c1ccccc1,.,-3.2%,.,.,?
CCOc1cc(NC2CS(=O)(=O)CC2O)c(OCC)cc1NC(=O)c1ccccc1 (centres undefined),-2.9%,?,8.4%,0.0%,?
CCOc1cc(NC(=O)c2ccccn2)c(OCC)cc1NC(=O)c1ccc(Cl)cc1,.,1.46µM*,18.6%,0.1%,1.16µM*
CCOc1cc(NC(=O)C2CC2)c(OCC)cc1NC(=O)c1ccccn1,2.1%,18.4µM*,2.7%,-0.5%,18.4µM*
